The values that follow come from US20100227896A1, “USE OF VITAMIN PP COMPOUNDS” (ASTELLAS DEUTSCHLAND GMBH, priority 1998, published 2010).

Molecules are shown by their SMILES. Where two headings read alike, the source gives them in different places.

The test system of the data set is NMRI mice. Conditions: dead/6 mice. On the procedure:
Parallel to this, 500 mg/kg nicotinamide was simultaneously intraperitoneally administered each to the individual dosage groups. 7 days after the beginning of treatment, the blood picture of the individual animals was examined.

As for `O=C(CCc1cccnc1)NCCCCC1CCN(C(c2ccccc2)c2ccccc2)CC1` [K22.097, N-[4-(1-diphenylmethylpiperidin-4-yl)-butyl]-3-(pyridin-3-yl)-propionamide], the Mortality is reported as 0/6 (2 × 100 mg/kg K22.097 orally + 2 × 500 mg/kg nicotinamide intraperitoneally), 1/6 (2 × 100 mg/kg K22.097 orally twice daily over 4 days), 0/6 (2 × 120 mg/kg K22.097 orally + 2 × 500 mg/kg nicotinamide intraperitoneally) and 3/6 (2 × 120 mg/kg K22.097 orally twice daily over 4 days).
